Target: CYP2C9 (Homo sapiens, UniProt P11712)
Conditions: substrate 25 μM 7-methoxy-4-trifluoromethylcoumarin-3-acetic acid, 400 μg/mL CYP2C9 microsomal protein, 37° C., excitation 410 nm, emission 510 nm

Protein sequences, listed by entry. Tags and fused reporters are not part of them.
UniProt P11712, whole entry, species assumed: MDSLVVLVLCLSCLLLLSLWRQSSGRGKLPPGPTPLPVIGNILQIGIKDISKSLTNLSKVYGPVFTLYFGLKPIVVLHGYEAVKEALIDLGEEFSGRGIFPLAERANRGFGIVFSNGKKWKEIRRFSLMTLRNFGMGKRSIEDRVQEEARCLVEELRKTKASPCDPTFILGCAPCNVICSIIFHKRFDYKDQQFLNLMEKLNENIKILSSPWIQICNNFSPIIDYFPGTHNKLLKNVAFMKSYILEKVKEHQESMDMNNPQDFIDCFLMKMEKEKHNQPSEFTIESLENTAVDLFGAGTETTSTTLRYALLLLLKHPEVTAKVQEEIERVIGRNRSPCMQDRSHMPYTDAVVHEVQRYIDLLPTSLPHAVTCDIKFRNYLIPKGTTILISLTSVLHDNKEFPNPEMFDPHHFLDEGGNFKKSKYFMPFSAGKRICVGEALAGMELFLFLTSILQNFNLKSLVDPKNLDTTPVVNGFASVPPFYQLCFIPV

sulphaphenazole
IC50: 290 nM

— patent US6756209B1, “7-Alkoxycoumarins as CYP2C9 substrates and activity assay” (SmithKline Beecham p.l.c., priority 1998, dated 2004)
